Reference: article PMC12903857 (2026)

Biological target: T1, 14-3-3σ, tagged with a Twin-Strep tag (UniProt P31947 1-248)
T1 chain: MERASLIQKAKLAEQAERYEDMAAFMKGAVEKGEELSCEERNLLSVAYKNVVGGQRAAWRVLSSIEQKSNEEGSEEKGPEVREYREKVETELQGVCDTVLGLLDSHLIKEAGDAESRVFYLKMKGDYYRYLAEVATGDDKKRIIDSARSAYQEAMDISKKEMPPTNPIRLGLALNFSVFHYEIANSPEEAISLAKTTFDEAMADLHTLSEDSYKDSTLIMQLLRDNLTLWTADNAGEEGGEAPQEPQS
Assay: SPR

Kd: 2700 nM
Binder: DRSSSAPNVHIN (acetylated; phosphoserine at 365) [acetylated 12-mer B-RAF peptide]
